The source of these data is ChEMBL document CHEMBL1144420 (J Med Chem, 2005).

The chains behind the UniProt entries cited, without tags or fusion partners.
UniProt P31652, whole entry: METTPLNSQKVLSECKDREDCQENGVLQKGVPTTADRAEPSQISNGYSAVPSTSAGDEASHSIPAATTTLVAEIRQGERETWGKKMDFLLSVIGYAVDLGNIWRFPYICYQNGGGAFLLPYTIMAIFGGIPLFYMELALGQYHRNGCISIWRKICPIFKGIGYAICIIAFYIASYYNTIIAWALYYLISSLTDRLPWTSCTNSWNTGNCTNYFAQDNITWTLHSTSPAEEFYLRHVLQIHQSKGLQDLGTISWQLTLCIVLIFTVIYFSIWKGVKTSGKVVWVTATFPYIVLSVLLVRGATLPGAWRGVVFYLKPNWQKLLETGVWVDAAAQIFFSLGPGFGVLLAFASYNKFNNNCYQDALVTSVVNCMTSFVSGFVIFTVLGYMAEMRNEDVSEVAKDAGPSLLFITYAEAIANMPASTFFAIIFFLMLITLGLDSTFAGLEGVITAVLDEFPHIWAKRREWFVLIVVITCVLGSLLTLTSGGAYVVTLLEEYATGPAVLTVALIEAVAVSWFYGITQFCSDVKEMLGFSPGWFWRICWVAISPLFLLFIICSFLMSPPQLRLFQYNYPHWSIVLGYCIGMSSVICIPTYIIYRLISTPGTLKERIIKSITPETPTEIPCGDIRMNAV

The target in the assay is Sodium-dependent serotonin transporter (Rattus norvegicus, UniProt P31652). Nature of the assay: Displacement of [3H]paroxetine from Serotonin transporter of rat caudate putamen. It is filed as tissue-based. On the technique in general: Displacement assays read how much labelled ligand stays bound in the presence of the test substance.

As a reminder, the IC50 is the concentration that gives 50% inhibition. The compound `COC(=O)[C@H]1[C@@H](OC(=O)c2ccccc2)C[C@@H]2CC[C@H]1N2C` [COCAINE] displayed a half-inhibitory concentration (IC50) of 0.5 nM.
